Source: article PMC11325555, “Interaction of Bisphenol A and Its Analogs with Estrogen and Androgen Receptor from Atlantic Cod (Gadus morhua)” (Environmental Science & Technology, 2024)

Assays:
[1] = target: T1, Atlantic cod estrogen receptor alpha (gmEra) LBD (Gadus morhua, UniProt U5ILH7); assay: Luciferase reporter gene assay, gmEra agonism (estrogenic activity) in transfected COS-7 cells; settings: for maximal fold induction: COS-7, monkey, 24 h, read-out: gmEra Emax
T1 sequence (U5ILH7 170-455): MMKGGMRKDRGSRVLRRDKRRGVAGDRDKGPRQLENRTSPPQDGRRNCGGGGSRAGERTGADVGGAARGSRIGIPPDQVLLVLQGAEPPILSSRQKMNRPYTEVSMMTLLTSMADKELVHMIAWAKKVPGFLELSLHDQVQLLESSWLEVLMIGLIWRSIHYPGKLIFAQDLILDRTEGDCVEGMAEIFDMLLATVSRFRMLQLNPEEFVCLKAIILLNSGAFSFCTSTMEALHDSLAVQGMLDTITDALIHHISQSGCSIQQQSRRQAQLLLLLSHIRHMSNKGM
Procedure: (§1) Ligand activation of gmEra and gmAra was studied with a luciferase reporter gene assay in COS-7 cells transiently transfected with the pCMX-GAL4(DBD)-gmEra(LBD) or pCMX-GAL4(DBD)-gmAra(LBD) plasmid by using the TransIT-LT1 reagent (TransIT-LT1 Transfection Reagent, Mirus). Cells were seeded into 96-well plates (5000 cells/well) and incubated for 24 h before cotransfection with the plasmid mixture (100 ng/well). The plasmid mixture contained GAL4-UAS luciferase reporter plasmid (tk-(MH100)x4 luc), the pCMX-GAL4(DBD)-gmEra(LBD) or pCMX-GAL4(DBD)-gmAra(LBD) receptor plasmids (2:1 reporter:receptor plasmid mass ratio), and a plasmid constitutively producing the β-galactosidase enzyme used for normalization of transfection efficiency (pCMV- β-Gal). […] The maximum DMSO/methanol concentrations in the exposure wells were 0.5% (v/v) in DMEM medium without phenol red (Sigma-Aldrich). After exposure, cells were lysed, and luciferase and beta-galactosidase activities were measured as luminescence and absorbance (420 nm) after the addition of luciferin and ONPG substrates, respectively, using an Enspire Multimode plate reader (PerkinElmer, Waltham, Massachusetts, USA).
Luciferase reporter gene assays were established with COS-7 cells transiently producing the LBD of gmEra (Figure S1) for evaluating the estrogenic potential of 12 bisphenols.
COS-7 cells transiently transfected with gmEra-LBD were exposed to EE2 (open circles), BPA (black circles), and 11 different BPA analogs (red squares and as indicated) at increasing concentrations. Responses are presented as mean fold activation in luciferase activity in comparison to solvent-exposed cells ± SEM from three independent experiments with three technical replicates (n = 9). The dose–response curves were created using nonlinear regression and the four parameter logistic fit in Graphpad Prism v.9. For comparison, the dose–response curve of BPA (black line) is indicated together with each individual BP tested (red line). *p < 0.05 versus solvent control by one-way ANOVA and Dunnett’s multiple comparison post hoc test.

[2] = target: T1, Atlantic cod estrogen receptor alpha (gmEra) LBD; assay: Luciferase reporter gene assay, gmEra antagonism (antiestrogenic activity), coexposure with 3 nM EE2; assay type: cell-based
Procedure: as §1, with “USA). […]” for “USA).”

[3] = target: T2, Atlantic cod androgen receptor alpha (gmAra) LBD (Gadus morhua, UniProt D5FIC7); assay: Luciferase reporter gene assay, gmAra agonism (androgenic activity) in transfected COS-7 cells; settings: COS-7, monkey, 24 h, read-out: gmAra Emax
T2 sequence (D5FIC7 409-718): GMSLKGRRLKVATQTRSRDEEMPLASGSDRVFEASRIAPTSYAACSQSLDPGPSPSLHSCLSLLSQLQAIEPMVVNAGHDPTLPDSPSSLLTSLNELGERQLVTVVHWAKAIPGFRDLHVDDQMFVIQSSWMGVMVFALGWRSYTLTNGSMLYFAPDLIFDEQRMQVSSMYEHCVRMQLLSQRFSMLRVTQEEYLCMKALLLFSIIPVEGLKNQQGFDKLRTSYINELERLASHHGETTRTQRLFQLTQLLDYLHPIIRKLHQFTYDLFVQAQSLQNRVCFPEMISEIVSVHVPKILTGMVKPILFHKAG
Procedure: as §1
Figure 3 Androgenic activity of bisphenols. COS-7 cells were transiently transfected with gmAra LBD and exposed individually to 12 bisphenol analogs at increasing concentrations. […]

Row | Compound | maximal fold induction [1] | EC50 ([1]; gmEra EC50, four-parameter logistic fit, 24 h exposure) | gmEra REP50 (relative potency EC50, EC50-bisphenol A/EC50-bisphenol X) ([1]; relative to BPA) | IC50 [2] | maximal fold induction [3] | gmEra activation, result in words ([1]; luciferase reporter gene assay)
1 | CC1CC(C)(C)CC(c2ccc(O)cc2)(c2ccc(O)cc2)C1 (stereo not drawn) [BPTMC] | > 1.5 | 1.28 µM | 1.5 | ~1.86 µM | 1.4 | –
2 | CC(C)c1cc(C(C)(C)c2ccc(O)c(C(C)C)c2)ccc1O [BPG] | ~1.4 | – | – | 1.4 µM | 0.8 | did not activate gmEra
